Data reported in patent US7563771B2, “Synthetic single domain polypeptides mimicking apolipoprotein E” (UAB Research Foundation, priority 2002, dated 2009).
Entries after “also recorded” stand apart in the source; their conditions may differ.

Tested on: erythrocytes
Test: Hemolysis of erythrocytes (hemoglobin content of supernatant, absorbance at 540 nm)
Type: cell-based
Details: erythrocytes in PBS, 10 min at 37° C. (FIG. 2)
Method: This example was performed to test the affect of amino acid residue changes on the lytic nature of peptides of the invention. Lysine residues, which resided on the polar face of the single domain peptide, were substituted with arginine and such altered peptides were tested for lytic ability. Similarly, in other peptides of the invention, lysine residues on the polar face of the single domain peptide of the invention were dimethylated. These altered peptides neutralized the hemolytic property of the 18 L peptide. A suspension of erythrocytes (10^6 cells/ml) in phosphate-buffered saline with and without peptide (10 ml of […] peptide solution) was incubated for 10 min at 37° C. Hemolysis was expressed as hemoglobin content (absorbance at 540 nm) of the supernatant after centrifugation at 16,000×g for 3 min. Hemoglobin content as measured in the presence of 0.1% Triton X-100 was taken as 100% hemolysis.

## Ac-DWLKAFYDKVAEKLKEAF-NH2 [18A]
  hemolysis / cell lysis, in words: did not cause lysis; also recorded: do not cause cell lysis
